Measurements published in paper PMC10373114, “CDK2 regulates collapsed replication fork repair in CCNE1-amplified ovarian cancer cells via homologous recombination” (NAR Cancer, 2023).
Where two headings read alike, the source gives them in different places.

By UniProt entry, the sequences of proteins in these tests, tags left out.
UniProt P06493, whole entry: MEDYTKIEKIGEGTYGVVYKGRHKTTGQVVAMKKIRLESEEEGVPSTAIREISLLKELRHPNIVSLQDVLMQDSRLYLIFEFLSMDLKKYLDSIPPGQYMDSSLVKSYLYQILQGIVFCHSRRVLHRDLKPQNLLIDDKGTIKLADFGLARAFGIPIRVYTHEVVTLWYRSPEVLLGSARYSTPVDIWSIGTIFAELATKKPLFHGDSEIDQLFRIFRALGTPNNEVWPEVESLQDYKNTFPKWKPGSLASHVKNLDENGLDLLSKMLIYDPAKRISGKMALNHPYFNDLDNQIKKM
UniProt P50750, whole entry: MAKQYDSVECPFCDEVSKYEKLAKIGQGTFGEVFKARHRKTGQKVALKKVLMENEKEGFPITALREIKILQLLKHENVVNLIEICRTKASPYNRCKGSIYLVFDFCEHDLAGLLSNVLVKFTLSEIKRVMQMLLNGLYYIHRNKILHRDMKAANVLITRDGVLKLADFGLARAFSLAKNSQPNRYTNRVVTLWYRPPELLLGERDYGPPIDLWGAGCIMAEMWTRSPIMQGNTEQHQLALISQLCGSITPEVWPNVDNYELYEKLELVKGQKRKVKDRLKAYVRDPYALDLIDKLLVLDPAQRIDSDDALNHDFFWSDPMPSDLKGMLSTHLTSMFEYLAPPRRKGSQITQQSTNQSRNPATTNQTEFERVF
UniProt Q00534, whole entry: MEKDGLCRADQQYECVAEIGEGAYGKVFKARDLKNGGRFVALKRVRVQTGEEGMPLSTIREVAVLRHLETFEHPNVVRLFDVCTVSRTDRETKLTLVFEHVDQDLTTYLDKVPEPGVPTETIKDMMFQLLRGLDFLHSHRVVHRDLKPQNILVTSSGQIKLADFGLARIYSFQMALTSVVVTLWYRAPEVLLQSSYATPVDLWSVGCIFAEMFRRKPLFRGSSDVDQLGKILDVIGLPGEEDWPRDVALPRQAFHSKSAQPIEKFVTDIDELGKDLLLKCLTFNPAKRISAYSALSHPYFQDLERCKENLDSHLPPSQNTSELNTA
UniProt P11802, whole entry: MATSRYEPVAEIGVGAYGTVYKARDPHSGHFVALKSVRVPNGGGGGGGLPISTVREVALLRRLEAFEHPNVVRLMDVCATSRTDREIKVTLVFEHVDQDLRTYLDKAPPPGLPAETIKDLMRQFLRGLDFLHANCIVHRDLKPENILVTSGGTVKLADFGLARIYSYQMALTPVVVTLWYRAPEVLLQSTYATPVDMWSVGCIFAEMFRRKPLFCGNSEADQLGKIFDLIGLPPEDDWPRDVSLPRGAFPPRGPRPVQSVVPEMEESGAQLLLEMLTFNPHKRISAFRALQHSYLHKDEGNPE
UniProt P50613, whole entry: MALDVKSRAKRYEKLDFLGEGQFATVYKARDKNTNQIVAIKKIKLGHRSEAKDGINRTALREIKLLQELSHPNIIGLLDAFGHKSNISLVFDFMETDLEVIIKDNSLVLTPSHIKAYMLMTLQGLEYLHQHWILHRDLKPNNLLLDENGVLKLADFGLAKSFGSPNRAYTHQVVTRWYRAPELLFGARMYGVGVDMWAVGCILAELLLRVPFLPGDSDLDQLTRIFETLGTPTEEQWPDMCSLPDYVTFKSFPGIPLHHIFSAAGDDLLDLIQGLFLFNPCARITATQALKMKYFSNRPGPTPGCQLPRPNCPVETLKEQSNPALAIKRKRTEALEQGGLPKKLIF
UniProt P30281, whole entry partner: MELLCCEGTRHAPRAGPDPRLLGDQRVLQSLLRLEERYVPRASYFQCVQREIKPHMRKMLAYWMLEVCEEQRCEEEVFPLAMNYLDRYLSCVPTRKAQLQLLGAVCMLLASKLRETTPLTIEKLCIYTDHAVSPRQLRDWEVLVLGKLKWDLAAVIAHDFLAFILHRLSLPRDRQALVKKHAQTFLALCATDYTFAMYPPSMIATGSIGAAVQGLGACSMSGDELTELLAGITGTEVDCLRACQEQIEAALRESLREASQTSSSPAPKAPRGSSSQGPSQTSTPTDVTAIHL
UniProt P24385, whole entry partner: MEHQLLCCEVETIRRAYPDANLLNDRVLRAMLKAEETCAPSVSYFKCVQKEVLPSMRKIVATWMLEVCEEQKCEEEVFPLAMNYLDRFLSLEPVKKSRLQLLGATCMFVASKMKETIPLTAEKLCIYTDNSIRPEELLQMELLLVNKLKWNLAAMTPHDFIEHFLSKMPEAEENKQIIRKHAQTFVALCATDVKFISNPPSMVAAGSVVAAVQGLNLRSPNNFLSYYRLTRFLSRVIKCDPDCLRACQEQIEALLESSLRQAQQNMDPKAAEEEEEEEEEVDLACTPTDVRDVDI
UniProt P51946, whole entry partner: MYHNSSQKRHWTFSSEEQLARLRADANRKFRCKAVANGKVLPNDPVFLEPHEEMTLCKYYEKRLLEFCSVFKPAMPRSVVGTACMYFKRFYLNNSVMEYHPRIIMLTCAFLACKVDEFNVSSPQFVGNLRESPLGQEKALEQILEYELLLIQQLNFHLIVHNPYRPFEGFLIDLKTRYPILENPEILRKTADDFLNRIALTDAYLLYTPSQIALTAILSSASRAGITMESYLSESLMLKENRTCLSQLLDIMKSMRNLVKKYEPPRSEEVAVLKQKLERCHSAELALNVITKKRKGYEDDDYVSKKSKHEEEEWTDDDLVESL
UniProt O60563, whole entry partner: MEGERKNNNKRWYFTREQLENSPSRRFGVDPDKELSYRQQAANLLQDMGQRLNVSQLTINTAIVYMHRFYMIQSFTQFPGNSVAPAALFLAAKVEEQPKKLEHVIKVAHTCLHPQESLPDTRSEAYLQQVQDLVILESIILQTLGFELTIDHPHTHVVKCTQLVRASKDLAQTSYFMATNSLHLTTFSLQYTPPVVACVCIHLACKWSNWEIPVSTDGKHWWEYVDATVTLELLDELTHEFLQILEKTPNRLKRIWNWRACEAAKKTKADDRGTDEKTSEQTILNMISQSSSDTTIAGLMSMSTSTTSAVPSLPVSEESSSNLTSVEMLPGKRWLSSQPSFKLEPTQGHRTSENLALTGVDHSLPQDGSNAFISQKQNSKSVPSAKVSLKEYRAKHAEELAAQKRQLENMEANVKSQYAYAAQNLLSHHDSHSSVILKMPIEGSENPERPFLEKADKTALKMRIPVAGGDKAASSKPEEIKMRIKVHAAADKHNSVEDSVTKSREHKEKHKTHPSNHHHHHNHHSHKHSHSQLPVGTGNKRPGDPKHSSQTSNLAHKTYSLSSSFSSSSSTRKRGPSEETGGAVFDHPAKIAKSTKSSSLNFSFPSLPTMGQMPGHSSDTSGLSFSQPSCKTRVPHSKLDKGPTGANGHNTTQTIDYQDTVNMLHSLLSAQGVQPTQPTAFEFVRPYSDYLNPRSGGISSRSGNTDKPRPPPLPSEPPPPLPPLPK
UniProt P14635, whole entry partner: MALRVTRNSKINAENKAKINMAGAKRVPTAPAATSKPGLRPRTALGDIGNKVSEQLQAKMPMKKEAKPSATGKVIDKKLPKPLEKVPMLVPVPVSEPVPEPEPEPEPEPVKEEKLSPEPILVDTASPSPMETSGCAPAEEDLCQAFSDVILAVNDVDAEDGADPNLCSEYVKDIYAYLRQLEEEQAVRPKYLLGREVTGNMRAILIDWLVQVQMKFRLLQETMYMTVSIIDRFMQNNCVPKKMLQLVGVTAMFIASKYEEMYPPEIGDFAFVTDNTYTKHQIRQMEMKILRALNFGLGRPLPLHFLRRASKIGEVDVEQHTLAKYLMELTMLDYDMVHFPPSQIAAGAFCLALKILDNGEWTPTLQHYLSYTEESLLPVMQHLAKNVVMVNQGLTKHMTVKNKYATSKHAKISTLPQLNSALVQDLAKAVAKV

Tests used:
MCF-7 cells = assay: CyQuant proliferation assay; assay type: cell-based
[1] = tested on: phosphorylation of Rb (CDK2 readout) and lamin A/C (CDK1 readout); assay: Cellular phosphorylation AlphaLISA assays (pRb T821/826, pLamin S22); conditions: OVCAR-3
OVCAR-3 cells [2] = assay: Cell cycle profiling by flow cytometry; conditions: 250 nM, 24 hour treatment
OVCAR-3 cells [3] = assay: CyQuant proliferation assay; assay type: cell-based, human; conditions: read-out: OVCAR-3 IC50, 5 days, mean of two independent replicates
CDK1/CycB1 = CDK1/CycB1 (Homo sapiens, UniProt P06493); assay: NanoBRET target engagement assay; assay type: binding; conditions: read-out: NanoBRET CDK1/CycB1 IC50; HEK-293T cells transfected with CDK complex
CDK9/CycT1 = CDK9/CycT1 (Homo sapiens, UniProt P50750); assay: NanoBRET target engagement assay; assay type: binding; conditions: read-out: NanoBRET CDK9/CycT1 IC50; HEK-293T cells transfected with CDK complex
CDK6/CycD3 = CDK6/CycD3 (Homo sapiens, UniProt Q00534); assay: NanoBRET target engagement assay; assay type: binding; conditions: read-out: NanoBRET CDK6/CycD3 IC50; HEK-293T cells transfected with CDK complex
CDK4/CycD1 = CDK4/CycD1 (Homo sapiens, UniProt P11802); assay: NanoBRET target engagement assay; assay type: binding; conditions: read-out: NanoBRET CDK4/CycD1 IC50; HEK-293T cells transfected with CDK complex
CDK2/CycE1 = CDK2/CycE1 (Homo sapiens, UniProt P24941); assay: NanoBRET target engagement assay; assay type: binding; conditions: read-out: NanoBRET CDK2/CycE1 IC50; HEK-293T cells transfected with CDK complex
kinases tested (n = 468) = conditions: fraction of kinases with <10% of control at 3 μM among 468 kinases tested
CDK7/CycH1 = CDK7/CycH1 (Homo sapiens, UniProt P50613); assay: NanoBRET target engagement assay; conditions: read-out: NanoBRET CDK7/CycH1 IC50; HEK-293T cells transfected with CDK complex
[4] = tested on: CtIP bandshift and pRPA S4/8; assay: Western blot of HR signaling after etoposide; assay type: cell-based; conditions: 25 or 250 nM, 24 h before 50 μM etoposide 2 h
[5] = tested on: homologous recombination (3X-FLAG ACTB reporter); assay: CRISPR/Cas9 recombination assay; conditions: 25 or 250 nM BLU1851, 10 μM roscovitine; 72 h

SMILES: NS(=O)(=O)c1ccc(Nc2ncc(C(F)(F)F)c(-c3cnn(C4CCOCC4)c3)n2)c(F)c1
- IC50 (MCF-7 cells; read-out: MCF-7 IC50, proliferation, 5 days, CyQuant, mean of two independent replicates): 1360 nM
- IC50 (MCF-7 cells; read-out: average anti-proliferative IC50 in MCF-7, CDK4-dependent cell line): > 1000 nM
- window between cellular CDK2 (pRb) and CDK1 (pLamin) activity [1]: large window between CDK2 and CDK1 activity
- cell cycle arrest (OVCAR-3 cells [2]): arrested cells in G1
- IC50 (OVCAR-3 cells [3]): 283 nM
- IC50 (CDK1/CycB1): 337 nM
- IC50 (CDK9/CycT1): 9400 nM
- IC50 (CDK6/CycD3): 168 nM
- IC50 (CDK4/CycD1): 215 nM
- IC50 (CDK2/CycE1): 2.3 nM
- Kinome S (10) (kinases tested (n = 468)): 0.050
- IC50 (CDK7/CycH1): 2600 nM
- HR signaling in CCNE1-amplified cell lines [4]: suppressed HR signaling
- HR signaling in non-amplified cell lines [4]: little effect
- recombination (3X-FLAG product) [5]: suppressed in OVCAR-3 and FUOV1 cells but not in COV644 or hTERT-RPE1 cells
